This is an account of results in patent US20240166755A1, “CHIMERIC ANTIGEN RECEPTORS TARGETING CANCER” (University of Southern California, priority 2016, published 2024).

Experiment [1] concerns the target T1, extracellular domain (ECD) of human MPL (Homo sapiens, UniProt P40238).
T1 construct: made in house; host or cells: 293FT cells, conditioned medium used unpurified
As to the kind of experiment: NLuc assay to detect CAR: binding of MPL-ECD-GGSG-NLuc-AcV5 supernatant to CAR-expressing cells. From the text: (§1) A frequent problem in the field of chimeric antigen receptors is lack of a sensitive and specific assay that can detect cells that express chimeric antigen receptors. To detect the expression of CAR targeting CD19 and MPL, we fused the extracellular domains (ECD) of human CD19 and human MPL, including their signal peptides, in frame with nucleotide sequence encoding a Gly-Gly-Ser-Gly linker, NLuc (without a secretory signal) and an AcV5 epitope tag. In the case of CD19 construct, a FLAG tag was inserted between the signal peptide and the beginning of the extracellular domain. The whole cassette was cloned downstream of the human EF1α promoter into the lentiviral vector pLenti-EF1 to make constructs pLenti-EF1-FLAG-CD19-ECD-GGSG-NLuc-AcV5 and pLenti-EF1-MPL-ECD-GGSG-NLuc-AcV5, respectively. The nucleic acid sequences of the insert fragments are provided in SEQ ID NO: 926 and SEQ ID NO: 925, respectively. The protein sequences of the insert fragments are provided in SEQ ID NO: 2671 and SEQ ID NO: 2670, respectively. The constructs were transfected into 293FT cells by calcium phosphate co-precipitation method. Approximately 20 h post-transfection, the cell culture media was replaced with fresh medium. The conditioned media containing the secreted FLAG-CD19-ECD-GGSG-NLuc-AcV5 (also referred to as CD19-GGSG-NLuc-AcV5) and MPL-ECD-GGSG-NLuc-AcV5 (also referred to as MPL-GGSG-NLuc-AcV5) proteins was collected 48-72 h later.
(§2) Next day morning, approximately 18 hours post-transfection, cells were collected by pipetting up and down in 1.5 ml tubes. The tubes were spun down at 1500 RPM for 5 minutes. Then the cells were washed once with wash buffer (1% FBS in PBS), followed by incubation with 1001 of indicated secretory forms of GGS NLuc supernatants. The cells were incubated at 4° C. for 1 hour.
(§3) After the incubation, cells were washed 5 times with wash buffer (1 ml each wash). Finally the pellet was resuspended in 200 μl wash buffer. Resuspended cells were placed in a 384 well plate in triplicate (25 μl each). Luciferase activity was measured using a BioTek synergy H4 plate reader after addition of NLuc assay buffer (Promega) containing native coelenterazine (25 μl each well) directly to each well (one at a time).
T cells expressing the different MPL CAR constructs were incubated with MPL-GGSG-NLuc-AcV5 and CD19-GGSG-NLuc-AcV5 supernatants and after extensive washes assayed for NLuc activity essentially as described in the preceding example.

In another experiment the test system is HEL cells. As to the kind of experiment: ELISA of TNFα in supernatant of CAR-T cells co-cultured with HEL cells. To be noted: co-culture about 96 hours, versus uninfected T cells. In kind it is cell-based, human.
The target in experiment [2] is extracellular domain (ECD) of human CD19 (Homo sapiens, UniProt P15391). The experiment in a line: NLuc assay to detect CAR: binding of FLAG-CD19-ECD-GGSG-NLuc-AcV5 supernatant to CAR-expressing cells. Particulars: puromycin selected.
Text: as §1, §2, §3
Jurkat-NFAT-Luc cells were stably transduced with the different CD19 targeted CAR constructs and selected in puromycin. Cells were incubated with FLAG-CD19-ECD-GGSG-NLuc-AcV5 [SEQ ID NO:2671] supernatant and after extensive washes assayed for NLuc activity essentially as described previously.
Purified T cells were stably transduced with the different CD19-targeted CAR constructs and selected in puromycin. Cells were incubated with FLAG-CD19-ECD-GGSG-NLuc-AcV5 [SEQ ID NO:2671] supernatant and after extensive washes assayed for NLuc activity essentially as described previously.

Experiment [3] has as its system RAJI xenograft model of lymphoma. As to the kind of experiment: In vivo efficacy of CAR-T cells, RAJI xenograft model of lymphoma in NSG mice (Table 27). More on the design: species or system mouse. To be noted: for median survival: n=5. How it is done: NSG mice (Jackson Lab) were sub-lethally irradiated at a dose of 175 cGy. 24 hours post irradiation (day2), mice were injected with 2.5×10^4 RAJI cells via tail-vein. […] Control mice (n=5) were injected with 1 million T cells expressing the CD8SP-KSHV-4C3-(vL-vH)-Myc-BBz-T2A-PAC(042315-N01)[SEQ ID NO:1643] CAR or given no T cells. […] The median survival of mice given RAJI cells alone and CD8SP-KSHV-4C3-(vL-vH)-Myc-BBz-T2A-PAC(042315-N01)[SEQ ID NO:1643]CAR-T cells were 17 days and 21 days respectively. In contrast, the median survival of mice which received CD8SP-2-CD19MM-(vL-vH)-Myc-BBz-T2A-PAC(062915-D03)[SEQ ID NO:1471] CAR-T cells with and without puromycin selection were 26 and 30 days, respectively. […] CAR-T cells with and without puromycin selection were 30 and 31 days, respectively.
NSG mice (Jackson Lab) were sub-lethally irradiated at a dose of 175 cGy. 24 hours post irradiation (day2), mice were injected with 2.5×10^4 RAJI cells via tail-vein. On day3, the mice (n=3 for each group) were treated with 1 million T cells that had been infected with the CAR encoding lentiviruses.
Human peripheral blood T cells will be isolated using CD3 magnetic beads and infected with lentiviruses expressing the CAR constructs (SEQ ID NO: 11 1614-1B05) targeting CD 19. […] NSG mice (Jackson Lab) will be sub-lethally irradiated at a dose of 175 cGy. 24 hours post irradiation (day2), mice will be injected with 2.5×10^4 RAJI cells via tail-vein. On day 3, the mice (n=5 for each group) will be treated with 5 million T cells that had been infected with the indicated CAR encoding lentiviruses and expanded in the absence or presence of PF-04691502. Control mice (n=5) will be injected with 5 million uninfected T cells. Mice are given human IL2 (400 IU i.p.) on alternate days till the death of all mice in control group.

Where [4] appears, read: stably transduced Jurkat-NFAT-Luc cells.

B1: CD8SP-161-(vL-vH)-Myc-CD28z-T2A-PAC(021715-Z07): CAR targeting MPL: 161 scFv with CD28 hinge, transmembrane and cytosolic domains and CD3z (protein)
chain: MALPVTALLLPLALLLHAARPDDIQMTQSSSSFSVSLGDRVTITCMASEDIYIRLAWYQQKPGNAPRLLISAATSLETGVPSRFSGSGSGKDYTLSITSLQTEDVGTYYCQQYWSSPWTFGGGTKLEINGGGGSGGGGSGGGGSDVQLQESGPGLVKPSQSLSLTCTVTGYSITSDYTWNWIRQFPGNKLEWMGYITYSGSTSYNPSLKSRNSITRDTSKNQFFLQLNSVTTEDTATYYCARLGRRYTMDYWGQGTSVTVSSTREQKLISEEDLKIEVMYPPPYLDNEKSNGTIIHVKGKHLCPSPLFPGPSKPFWVLVVVGGVLACYSLLVTVAFIIFWVRSKRSRLLHSDYMNMTPRRPGPTRKHYQPYAPPRDFAAYRSRVKFSRSADAPAYQQGQNQLYNELNLGRREEYDVLDKRRGRDPEMGGKPRRKNPQEGLYNELQKDKMAEAYSEIGMKGERRRGKGHDGLYQGLSTATKDTYDALHMQALPPRSSGSGEGRGSLLTCGDVEENPGPHMTEYKPTVRLATRDDVPRAVRTLAAAFADYPATRHTVDPDRHIERVTELQELFLTRVGLDIGKVWVADDGAAVAVWTTPESVEAGAVFAEIGPRMAELSGSRLAAQQQMEGLLAPHRPKEPAWFLATVGVSPDHQGKGLGSAVVLPGVEAAERAGVPAFLETSAPRNLPFYERLGFTVTADVEVPEGPRTWCMTRKPGA
modifications: listed as DNA
notes: CAR targeting MPL: 161 scFv with CD28 hinge, transmembrane and cytosolic domains and CD3z
Turning to B1, in experiment [1] (T cells expressing the CAR), the “binding to MPL-GGSG-NLuc AcV5 (NLuc assay)” value is given as “modest binding”. Besides, in experiment [1] (transiently transfected 293FT cells), the “binding to MPL-ECD-GGSG-NLuc-AcV5 (NLuc assay)” value was “strong binding”. Besides, the “secretion of TNFα” value with HEL cells is recorded as “increased secretion of TNFα”.

B2: CD8SP-KSHV-4C3-(vL-vH)-Myc-BBz-T2A-PAC(042315-N01): CAR with scFv against KSHV encoded K8.1 protein, used as a negative control (protein)
chain: MALPVTALLLPLALLLHAARPDIVMTQSPSSLTMSVGQKVTMSCKSSHSLLNSRNQKNYLAWFQQKPGQSPKLLVYFASTRESGVPDRFIGSGSGTDFTLTISNVQAEDLADYFCQQHYTTLPTFGGGTKLEIKGGGGSGGGGSGGGGSQIQLVQSGPDLKKPGETVKISCKASGYTFTNTGMNWVKQAPGKGLKWMGWINTYTGEPTYADDFKGRFTFSLETSASTAYLQINNLKNEDTATYFCTRWGYGSSLYYAMDYWGQGTSVTVSSTREQKLISEEDLAKPTTTPAPRPPTPAPTIASQPLSLRPEACRPAAGGAVHTRGLDFACDIYIWAPLAGTCGVLLLSLVITLYCKRGRKKLLYIFKQPFMRPVQTTQEEDGCSCRFPEEEEGGCELRVKFSRSADAPAYQQGQNQLYNELNLGRREEYDVLDKRRGRDPEMGGKPRRKNPQEGLYNELQKDKMAEAYSEIGMKGERRRGKGHDGLYQGLSTATKDTYDALHMQALPPRSSGSGEGRGSLLTCGDVEENPGPHMTEYKPTVRLATRDDVPRAVRTLAAAFADYPATRHTVDPDRHIERVTELQELFLTRVGLDIGKVWVADDGAAVAVWTTPESVEAGAVFAEIGPRMAELSGSRLAAQQQMEGLLAPHRPKEPAWFLATVGVSPDHQGKGLGSAVVLPGVEAAERAGVPAFLETSAPRNLPFYERLGFTVTADVEVPEGPRTWCMTRKPGA
modifications: listed as DNA
notes: CAR with scFv against KSHV encoded K8.1 protein, used as a negative control
Consider B2, for which the “binding to FLAG-CD19-ECD-GGSG-NLuc-AcV5 (NLuc assay)” value in experiment [2] (setting [4]) and in experiment [2] (transduced T cells) was “no significant binding” each time. This molecule came in with a median survival in experiment [3] (1 million T cells expressing control CAR) of 21 days.

B3: CD8SP-CD19Bu12-(vL-vH)-Myc-BBz-T2A-PAC(082815-P08): CD19 CAR with scFv from humanized CD19 antibody huCD19-Bu12, 41BB and CD3z (protein)
chain: MALPVTALLLPLALLLHAARPDEIVLTQSPATLSLSPGERATLSCSASSSVSYMHWYQQKPGQAPRLLIYDTSKLASGIPARFSGSGSGTDFTLTISSLEPEDVAVYYCFQGSVYPFTFGQGTKLEIKRGGGGSGGGGSGGGGSQVQLQESGPGLVKPSQTLSLTCTVSGGSISTSGMGVGWIRQHPGKGLEWIGHIWWDDDKRYNPALKSRVTISVDTSKNQFSLKLSSVTAADTAVYYCARMELWSYYFDYWGQGTLVTVSSTREQKLISEEDLAKPTTTPAPRPPTPAPTIASQPLSLRPEACRPAAGGAVHTRGLDFACDIYIWAPLAGTCGVLLLSLVITLYCKRGRKKLLYIFKQPFMRPVQTTQEEDGCSCRFPEEEEGGCELRVKFSRSADAPAYQQGQNQLYNELNLGRREEYDVLDKRRGRDPEMGGKPRRKNPQEGLYNELQKDKMAEAYSEIGMKGERRRGKGHDGLYQGLSTATKDTYDALHMQALPPRSSGSGEGRGSLLTCGDVEENPGPHMTEYKPTVRLATRDDVPRAVRTLAAAFADYPATRHTVDPDRHIERVTELQELFLTRVGLDIGKVWVADDGAAVAVWTTPESVEAGAVFAEIGPRMAELSGSRLAAQQQMEGLLAPHRPKEPAWFLATVGVSPDHQGKGLGSAVVLPGVEAAERAGVPAFLETSAPRNLPFYERLGFTVTADVEVPEGPRTWCMTRKPGA
modifications: listed as DNA
notes: CD19 CAR with scFv from humanized CD19 antibody huCD19-Bu12, 41BB and CD3z
In the case of B3, the “binding to FLAG-CD19-ECD-GGSG-NLuc-AcV5 (NLuc assay)” value in experiment [2] (setting [4]) and in experiment [2] (transduced T cells) was “strong binding” in each case. Besides, the median survival in experiment [3] (1 million T cells, with puromycin selection) is reported as 30 days; in experiment [3] (1 million T cells, without puromycin selection), 31 days. Also, in experiment [3] (versus no T cells or control CAR T cells), the survival of mice result was “statistically significant improvement in survival”.
